Results: PMC10009755, “Discovery and Characterization of BAY-805, a Potent and Selective Inhibitor of Ubiquitin-Specific Protease USP21” (Journal of Medicinal Chemistry, 2023)

Sequences of proteins named here, by UniProt entry; tags and fusion partners are left off. A change or cut given only in a name is not applied to a line headed by its entry. Residues count along the entry.
UniProt O14920: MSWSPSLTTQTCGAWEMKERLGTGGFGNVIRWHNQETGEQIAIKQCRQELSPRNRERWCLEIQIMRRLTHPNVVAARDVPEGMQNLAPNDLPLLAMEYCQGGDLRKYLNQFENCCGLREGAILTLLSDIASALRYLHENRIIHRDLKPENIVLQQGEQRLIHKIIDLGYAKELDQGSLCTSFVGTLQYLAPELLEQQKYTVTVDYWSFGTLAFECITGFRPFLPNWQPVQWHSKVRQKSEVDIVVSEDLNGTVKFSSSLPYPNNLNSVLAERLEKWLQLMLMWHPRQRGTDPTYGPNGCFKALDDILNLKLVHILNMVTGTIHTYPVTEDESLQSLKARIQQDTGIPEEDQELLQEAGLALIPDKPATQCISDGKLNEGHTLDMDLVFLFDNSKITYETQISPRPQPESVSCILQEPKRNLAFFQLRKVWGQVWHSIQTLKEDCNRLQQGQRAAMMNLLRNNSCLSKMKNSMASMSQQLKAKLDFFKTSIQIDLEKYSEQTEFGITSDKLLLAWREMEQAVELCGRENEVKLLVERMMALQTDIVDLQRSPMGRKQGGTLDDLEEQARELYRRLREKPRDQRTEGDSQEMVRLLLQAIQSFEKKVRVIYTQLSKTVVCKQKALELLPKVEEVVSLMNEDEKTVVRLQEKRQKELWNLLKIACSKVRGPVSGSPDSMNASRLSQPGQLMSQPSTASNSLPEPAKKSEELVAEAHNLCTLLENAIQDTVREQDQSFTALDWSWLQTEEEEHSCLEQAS
UniProt Q8TDR2: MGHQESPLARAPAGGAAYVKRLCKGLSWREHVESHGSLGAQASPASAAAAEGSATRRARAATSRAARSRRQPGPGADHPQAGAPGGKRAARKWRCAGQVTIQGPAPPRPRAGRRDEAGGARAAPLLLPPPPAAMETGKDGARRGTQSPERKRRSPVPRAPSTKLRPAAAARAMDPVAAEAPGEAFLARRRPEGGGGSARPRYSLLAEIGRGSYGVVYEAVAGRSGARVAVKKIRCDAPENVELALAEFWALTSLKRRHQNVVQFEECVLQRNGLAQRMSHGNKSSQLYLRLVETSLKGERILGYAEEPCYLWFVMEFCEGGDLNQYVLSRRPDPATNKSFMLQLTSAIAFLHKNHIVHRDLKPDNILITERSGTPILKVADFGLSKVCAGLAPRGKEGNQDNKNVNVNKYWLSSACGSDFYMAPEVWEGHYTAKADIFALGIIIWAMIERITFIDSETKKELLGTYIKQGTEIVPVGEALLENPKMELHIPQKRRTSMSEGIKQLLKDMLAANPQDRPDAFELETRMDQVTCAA
UniProt O94806: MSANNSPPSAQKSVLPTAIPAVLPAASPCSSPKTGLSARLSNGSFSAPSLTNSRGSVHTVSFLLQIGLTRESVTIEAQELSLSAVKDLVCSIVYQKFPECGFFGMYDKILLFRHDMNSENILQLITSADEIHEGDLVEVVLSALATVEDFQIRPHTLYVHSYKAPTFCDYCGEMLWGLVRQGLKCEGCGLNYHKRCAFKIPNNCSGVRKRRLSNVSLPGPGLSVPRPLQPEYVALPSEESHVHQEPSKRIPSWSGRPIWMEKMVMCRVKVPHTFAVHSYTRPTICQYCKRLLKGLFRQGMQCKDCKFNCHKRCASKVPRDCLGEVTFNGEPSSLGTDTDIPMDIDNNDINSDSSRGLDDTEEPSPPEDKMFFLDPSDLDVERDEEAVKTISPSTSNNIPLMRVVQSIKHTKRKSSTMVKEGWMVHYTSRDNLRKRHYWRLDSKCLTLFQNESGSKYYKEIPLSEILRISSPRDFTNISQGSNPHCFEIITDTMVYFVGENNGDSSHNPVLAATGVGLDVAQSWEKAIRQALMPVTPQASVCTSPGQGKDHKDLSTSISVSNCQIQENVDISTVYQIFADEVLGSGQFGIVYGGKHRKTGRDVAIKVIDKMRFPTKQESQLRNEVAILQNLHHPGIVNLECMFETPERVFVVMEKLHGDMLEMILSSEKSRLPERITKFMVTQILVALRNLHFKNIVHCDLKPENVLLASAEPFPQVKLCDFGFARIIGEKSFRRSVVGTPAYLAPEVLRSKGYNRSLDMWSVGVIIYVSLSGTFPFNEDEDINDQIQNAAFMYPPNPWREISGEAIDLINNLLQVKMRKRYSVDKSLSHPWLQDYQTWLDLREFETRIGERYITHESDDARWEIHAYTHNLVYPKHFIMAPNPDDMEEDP
UniProt Q9Y2H1: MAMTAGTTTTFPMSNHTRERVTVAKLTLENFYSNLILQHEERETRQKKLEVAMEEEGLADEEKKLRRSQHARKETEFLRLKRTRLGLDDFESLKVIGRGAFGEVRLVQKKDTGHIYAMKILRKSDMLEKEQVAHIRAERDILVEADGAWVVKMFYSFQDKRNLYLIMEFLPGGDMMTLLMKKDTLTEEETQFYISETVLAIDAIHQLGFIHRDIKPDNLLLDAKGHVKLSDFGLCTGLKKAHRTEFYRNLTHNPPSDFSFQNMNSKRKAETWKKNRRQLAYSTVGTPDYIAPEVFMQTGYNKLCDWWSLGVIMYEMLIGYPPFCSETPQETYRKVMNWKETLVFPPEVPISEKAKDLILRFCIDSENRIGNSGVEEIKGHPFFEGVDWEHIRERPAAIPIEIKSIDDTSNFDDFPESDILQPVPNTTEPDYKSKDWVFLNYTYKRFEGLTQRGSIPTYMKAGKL
UniProt Q9Y2U5: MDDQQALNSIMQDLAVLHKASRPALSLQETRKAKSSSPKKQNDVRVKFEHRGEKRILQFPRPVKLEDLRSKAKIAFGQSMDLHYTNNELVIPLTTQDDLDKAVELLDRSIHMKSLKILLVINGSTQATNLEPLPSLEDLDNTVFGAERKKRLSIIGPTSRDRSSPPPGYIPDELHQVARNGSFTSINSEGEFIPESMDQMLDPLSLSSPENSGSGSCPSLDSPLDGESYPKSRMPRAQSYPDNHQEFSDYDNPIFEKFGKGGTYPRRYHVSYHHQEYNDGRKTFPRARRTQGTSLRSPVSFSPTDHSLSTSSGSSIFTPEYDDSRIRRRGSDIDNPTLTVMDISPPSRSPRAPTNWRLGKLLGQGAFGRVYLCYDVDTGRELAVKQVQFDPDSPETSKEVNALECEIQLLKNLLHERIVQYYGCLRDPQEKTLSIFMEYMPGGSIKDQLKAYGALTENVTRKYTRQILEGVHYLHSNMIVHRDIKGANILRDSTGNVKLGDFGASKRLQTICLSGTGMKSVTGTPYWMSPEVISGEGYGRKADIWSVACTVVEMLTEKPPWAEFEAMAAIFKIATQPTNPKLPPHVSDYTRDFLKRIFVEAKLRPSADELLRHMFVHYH
UniProt O00311: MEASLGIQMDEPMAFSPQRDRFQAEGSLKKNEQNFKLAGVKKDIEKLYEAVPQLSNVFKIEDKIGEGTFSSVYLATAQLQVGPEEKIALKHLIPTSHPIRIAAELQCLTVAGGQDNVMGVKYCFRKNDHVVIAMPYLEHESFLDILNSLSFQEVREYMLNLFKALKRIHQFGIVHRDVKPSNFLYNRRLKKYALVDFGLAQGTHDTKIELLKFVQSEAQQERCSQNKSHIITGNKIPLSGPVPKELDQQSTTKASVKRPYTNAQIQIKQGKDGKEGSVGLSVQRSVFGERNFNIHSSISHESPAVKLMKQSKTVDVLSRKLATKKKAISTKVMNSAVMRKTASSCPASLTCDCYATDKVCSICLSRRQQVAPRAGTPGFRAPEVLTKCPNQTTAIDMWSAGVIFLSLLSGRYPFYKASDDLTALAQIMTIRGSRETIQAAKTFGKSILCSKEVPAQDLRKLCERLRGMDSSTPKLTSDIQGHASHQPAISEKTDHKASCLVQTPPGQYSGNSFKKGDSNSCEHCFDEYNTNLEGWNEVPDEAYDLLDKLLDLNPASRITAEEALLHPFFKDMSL
UniProt Q86UE8, whole entry: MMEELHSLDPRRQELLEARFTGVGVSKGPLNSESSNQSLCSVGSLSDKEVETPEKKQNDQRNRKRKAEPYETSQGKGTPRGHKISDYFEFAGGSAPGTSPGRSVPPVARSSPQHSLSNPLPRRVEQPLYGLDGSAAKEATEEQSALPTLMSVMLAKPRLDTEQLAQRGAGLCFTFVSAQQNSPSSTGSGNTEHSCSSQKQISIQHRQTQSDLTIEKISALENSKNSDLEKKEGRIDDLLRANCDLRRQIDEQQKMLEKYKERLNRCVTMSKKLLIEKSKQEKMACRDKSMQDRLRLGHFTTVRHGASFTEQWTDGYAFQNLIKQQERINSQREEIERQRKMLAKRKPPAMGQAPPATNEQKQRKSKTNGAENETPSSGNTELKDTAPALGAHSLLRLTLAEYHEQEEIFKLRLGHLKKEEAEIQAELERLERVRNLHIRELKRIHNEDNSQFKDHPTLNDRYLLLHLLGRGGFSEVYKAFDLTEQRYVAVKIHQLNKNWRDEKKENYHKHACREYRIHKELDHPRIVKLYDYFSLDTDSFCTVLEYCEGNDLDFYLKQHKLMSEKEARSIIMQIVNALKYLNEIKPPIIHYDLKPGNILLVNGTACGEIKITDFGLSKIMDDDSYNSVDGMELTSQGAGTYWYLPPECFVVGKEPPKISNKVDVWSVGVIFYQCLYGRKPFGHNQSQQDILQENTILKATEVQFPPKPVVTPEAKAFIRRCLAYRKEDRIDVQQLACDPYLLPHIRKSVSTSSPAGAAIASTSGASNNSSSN
UniProt P09619, 33-1106: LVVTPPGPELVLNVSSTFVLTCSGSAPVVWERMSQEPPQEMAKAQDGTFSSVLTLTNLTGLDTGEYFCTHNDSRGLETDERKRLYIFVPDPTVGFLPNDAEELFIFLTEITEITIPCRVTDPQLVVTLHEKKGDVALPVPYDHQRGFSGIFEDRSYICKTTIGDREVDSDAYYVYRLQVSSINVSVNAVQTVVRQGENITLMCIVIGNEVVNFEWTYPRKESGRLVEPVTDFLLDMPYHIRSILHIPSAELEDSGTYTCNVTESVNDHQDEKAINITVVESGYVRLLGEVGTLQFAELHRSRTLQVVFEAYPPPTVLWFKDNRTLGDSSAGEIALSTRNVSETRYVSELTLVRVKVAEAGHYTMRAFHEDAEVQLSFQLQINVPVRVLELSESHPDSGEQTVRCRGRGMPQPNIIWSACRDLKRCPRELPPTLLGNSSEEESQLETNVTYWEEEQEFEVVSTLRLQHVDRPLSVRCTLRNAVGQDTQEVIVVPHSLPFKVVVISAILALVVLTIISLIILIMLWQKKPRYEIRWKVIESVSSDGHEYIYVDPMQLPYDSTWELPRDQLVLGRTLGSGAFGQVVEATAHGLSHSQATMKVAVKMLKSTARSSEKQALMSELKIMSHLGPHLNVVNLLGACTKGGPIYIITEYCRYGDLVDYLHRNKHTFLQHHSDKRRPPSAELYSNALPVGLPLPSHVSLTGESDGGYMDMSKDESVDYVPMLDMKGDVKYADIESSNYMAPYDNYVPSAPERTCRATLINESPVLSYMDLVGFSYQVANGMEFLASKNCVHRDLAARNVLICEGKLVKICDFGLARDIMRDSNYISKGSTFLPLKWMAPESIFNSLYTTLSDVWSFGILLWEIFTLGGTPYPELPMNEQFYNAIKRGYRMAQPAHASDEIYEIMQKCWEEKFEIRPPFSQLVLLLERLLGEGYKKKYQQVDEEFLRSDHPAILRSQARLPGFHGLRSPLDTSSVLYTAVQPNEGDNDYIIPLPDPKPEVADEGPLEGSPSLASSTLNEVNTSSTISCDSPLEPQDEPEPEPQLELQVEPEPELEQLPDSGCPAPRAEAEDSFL
UniProt P22607, 23-806: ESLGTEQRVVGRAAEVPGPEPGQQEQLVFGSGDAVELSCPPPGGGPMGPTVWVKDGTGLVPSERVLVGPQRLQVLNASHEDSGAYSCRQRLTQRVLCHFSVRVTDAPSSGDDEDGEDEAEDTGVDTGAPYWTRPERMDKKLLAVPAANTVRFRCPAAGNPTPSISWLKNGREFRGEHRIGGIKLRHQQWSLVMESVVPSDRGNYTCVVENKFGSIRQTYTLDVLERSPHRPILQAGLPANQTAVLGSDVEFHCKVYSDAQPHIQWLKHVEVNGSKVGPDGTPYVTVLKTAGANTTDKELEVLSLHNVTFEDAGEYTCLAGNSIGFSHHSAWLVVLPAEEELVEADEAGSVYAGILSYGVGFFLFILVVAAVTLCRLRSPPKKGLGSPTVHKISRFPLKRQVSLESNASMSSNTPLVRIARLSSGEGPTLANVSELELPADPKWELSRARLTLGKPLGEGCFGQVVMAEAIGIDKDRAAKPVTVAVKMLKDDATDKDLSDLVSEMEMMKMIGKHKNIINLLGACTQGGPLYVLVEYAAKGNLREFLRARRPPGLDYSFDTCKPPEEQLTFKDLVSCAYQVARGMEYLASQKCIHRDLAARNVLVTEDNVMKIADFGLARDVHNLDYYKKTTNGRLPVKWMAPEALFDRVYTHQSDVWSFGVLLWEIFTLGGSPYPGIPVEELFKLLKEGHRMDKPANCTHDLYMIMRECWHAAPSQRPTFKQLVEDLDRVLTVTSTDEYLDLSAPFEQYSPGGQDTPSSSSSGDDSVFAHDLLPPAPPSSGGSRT

What was measured:
[1] = molecular target: CK1gamma3(h) (Homo sapiens, UniProt Q9Y6M4); assay: biochemical
[2] = molecular target: SRMS(h) (Homo sapiens, UniProt Q9H3Y6); assay: biochemical
[3] = molecular target: PKCmu(h) (Homo sapiens, UniProt Q15139); assay: biochemical
[4] = molecular target: JNK1alpha1(h) (Homo sapiens, UniProt P45983); assay: biochemical
[5] = molecular target: IKKalpha(h) (Homo sapiens, UniProt O15111); assay: biochemical
[6] = molecular target: BRK(h) (Homo sapiens, UniProt Q13882); assay: biochemical
[7] = molecular target: SAPK2a(h) (Homo sapiens, UniProt Q16539); assay: biochemical
[8] = molecular target: TAO1(h) (Homo sapiens, UniProt Q7L7X3); assay: biochemical
[9] = molecular target: CaMKIIbeta(h) (Homo sapiens, UniProt Q13554); assay: biochemical
[10] = molecular target: Yes(h) (Homo sapiens, UniProt P07947); assay: biochemical
[11] = molecular target: CDKL1(h) (Homo sapiens, UniProt Q00532); assay: biochemical
[12] = molecular target: IKKbeta(h) (Homo sapiens, UniProt O14920); assay: biochemical
[13] = molecular target: CDK2/cyclinE(h) (Homo sapiens, UniProt P24941); assay: biochemical
[14] = molecular target: CLIK1(h) (Homo sapiens, UniProt Q8TDR2); assay: biochemical
[15] = molecular target: Haspin(h) (Homo sapiens, UniProt Q8TF76); assay: biochemical
[16] = molecular target: PKD3(h) (Homo sapiens, UniProt O94806); assay: biochemical
[17] = molecular target: PRK1(h) (Homo sapiens, UniProt Q16512); assay: biochemical
[18] = molecular target: SGK3(h) (Homo sapiens, UniProt Q96BR1); assay: biochemical
[19] = molecular target: NDR2(h) (Homo sapiens, UniProt Q9Y2H1); assay: biochemical
[20] = molecular target: Pyk2(h) (Homo sapiens, UniProt Q14289); assay: biochemical
[21] = molecular target: CaMKK1(h) (Homo sapiens, UniProt Q8N5S9); assay: biochemical
[22] = molecular target: CHK1(h) (Homo sapiens, UniProt O14757); assay: biochemical
[23] = molecular target: cSRC(h) (Homo sapiens, UniProt P12931); assay: biochemical
[24] = molecular target: CDK13/cyclinK(h) (Homo sapiens, UniProt Q14004); assay: biochemical
[25] = molecular target: Histamine H1 (Homo sapiens, UniProt P35367); assay: biochemical; details: read-out: % Inh.
[26] = molecular target: MEKK2(h) (Homo sapiens, UniProt Q9Y2U5); assay: biochemical
[27] = molecular target: Cdc7/cyclinB1(h) (Homo sapiens, UniProt O00311); assay: biochemical
[28] = molecular target: A-Raf(h) (Homo sapiens, UniProt P10398); assay: biochemical
[29] = molecular target: TLK2(h) (Homo sapiens, UniProt Q86UE8); assay: biochemical
[30] = molecular target: CaMKIbeta(h) (Homo sapiens, UniProt Q6P2M8); assay: biochemical
[31] = molecular target: ROCK-I(h) (Homo sapiens, UniProt Q13464); assay: biochemical
[32] = molecular target: EGFR(h) (Homo sapiens, UniProt P00533); assay: biochemical
[33] = molecular target: MEK2(h) (Homo sapiens, UniProt P36507); assay: biochemical
[34] = molecular target: Insulin (Rattus norvegicus, UniProt P15127); assay: biochemical; details: read-out: % Inh.
[35] = test system: U2OS; assay: cells; details: Homo sapiens, 72 h, read-out: antiproliferative effect
[36] = molecular target: PAK4(h) (Homo sapiens, UniProt O96013); assay: biochemical
[37] = molecular target: Snk(h) (Homo sapiens, UniProt Q9NYY3); assay: biochemical
[38] = molecular target: Angiotensin AT2 (Homo sapiens, UniProt P50052); assay: biochemical; details: read-out: % Inh.
[39] = test system: GABAA, Flunitrazepam, Central; details: 10 µM
[40] = molecular target: B-Raf(h) (Homo sapiens, UniProt P15056); assay: biochemical
[41] = molecular target: PDGFRbeta(h) (Homo sapiens, UniProt P09619); assay: biochemical
[42] = molecular target: RIPK1(h) (Homo sapiens, UniProt Q13546); assay: biochemical
[43] = molecular target: FGFR3(h) (Homo sapiens, UniProt P22607); assay: biochemical

For `CC(C)C[C@H](NC(=O)C1(C(F)(F)F)CCCCC1)C(=O)Nc1nnc(Cc2ccc(C#N)cc2)s1` [Compound 22, CC(C)C[C@H](NC(=O)C1(CCCCC1)C(F)(F)F)C(=O)Nc2nnc(Cc3ccc(cc3)C#N)s2], the inhibition at 10 µM [1] was 2.37%, the inhibition at 10 µM [2] was 10.2% and the inhibition at 10 µM [3] was -7.74%. The inhibition at 10 µM [4] was -0.15%, the inhibition at 10 µM [5] was -8.97% and the inhibition at 10 µM [6] was 7.88%. It also gave an inhibition at 10 µM [7] of 4.9%, an inhibition at 10 µM [8] of -1.18% and an inhibition at 10 µM [9] of 1.16%. The inhibition at 10 µM [10] was 13.2%, the inhibition at 10 µM [11] was 13.4% and the inhibition at 10 µM [12] was 6.11%. For the same molecule, the inhibition at 10 µM [13] was -6.08%, the inhibition at 10 µM [14] was -3.36% and the inhibition at 10 µM [15] was 11%. For the same molecule, the inhibition at 10 µM [16] was 7.79%, the inhibition at 10 µM [17] was 5.48% and the inhibition at 10 µM [18] was -2.22%. It also gave an inhibition at 10 µM [19] of -2.71%, an inhibition at 10 µM [20] of -5.98% and an inhibition at 10 µM [21] of -7.24%. It also gave an inhibition at 10 µM [22] of -6.25%, an inhibition at 10 µM [23] of 18% and an inhibition at 10 µM [24] of 3.1%. The inhibition at 10 µM [25] was 5%, the inhibition at 10 µM [26] was -0.26% and the inhibition at 10 µM [27] was 3.54%. The inhibition at 10 µM [28] was 7.65%, the inhibition at 10 µM [29] was -2.92% and the inhibition at 10 µM [30] was -1.47%. For the same molecule, the inhibition at 10 µM [31] was 15.2%, the inhibition at 10 µM [32] was -21.6% and the inhibition at 10 µM [33] was 4.53%. It also gave an inhibition at 10 µM [34] of -5%, an IC50 [35] of over 30 µM and an inhibition at 10 µM [36] of 0.07%. For the same molecule, the inhibition at 10 µM [37] was -2.57%, the inhibition at 10 µM [38] was -2% and the “% Inh.” value [39] was -10%. It also gave an inhibition at 10 µM [40] of -3.24%, an inhibition at 10 µM [41] of -3.59% and an inhibition at 10 µM [42] of 0.89%. For the same molecule, the inhibition at 10 µM [43] was 21.2%.
Work on `CC(C)C[C@@H](NC(=O)C1(C(F)(F)F)CCCCC1)C(=O)Nc1nnc(Cc2ccc(C#N)cc2)s1` [Compound 21, N-[(1R)-1-[[5-[(4-Cyanophenyl)methyl]-1,3,4-thiadiazol-2-yl]carbamoyl]-3-methyl-butyl]-1-(trifluoromethyl)cyclohexanecarboxamide] yielded an inhibition at 10 µM [1] of 8%, an inhibition at 10 µM [2] of 20% and an inhibition at 10 µM [3] of 0.41%. The inhibition at 10 µM [4] was 9.47%, the inhibition at 10 µM [5] was -10.4% and the inhibition at 10 µM [6] was 4.3%. For the same molecule, the inhibition at 10 µM [7] was 2.13%, the inhibition at 10 µM [8] was 4.17% and the inhibition at 10 µM [9] was 7.19%. The inhibition at 10 µM [10] was 12.4%, the inhibition at 10 µM [11] was 10.1% and the inhibition at 10 µM [12] was -4.66%. The inhibition at 10 µM [13] was -7.88%, the inhibition at 10 µM [14] was 6.36% and the inhibition at 10 µM [15] was 9.87%. The inhibition at 10 µM [16] was -7.09%, the inhibition at 10 µM [17] was 2.46% and the inhibition at 10 µM [18] was 6.43%. The inhibition at 10 µM [19] was 10.8%, the inhibition at 10 µM [20] was 9.9% and the inhibition at 10 µM [21] was -4.16%. It also gave an inhibition at 10 µM [22] of -13.9%, an inhibition at 10 µM [23] of 17.8% and an inhibition at 10 µM [24] of 2.39%. The inhibition at 10 µM [25] was -1%, the inhibition at 10 µM [26] was 4.74% and the inhibition at 10 µM [27] was 6.32%. The inhibition at 10 µM [28] was 2.98%, the inhibition at 10 µM [29] was 8.77% and the inhibition at 10 µM [30] was 1.26%. It also gave an inhibition at 10 µM [31] of 3.01%, an inhibition at 10 µM [32] of -15.6% and an inhibition at 10 µM [33] of 5.61%. The inhibition at 10 µM [34] was 10%, the IC50 [35] was over 30 µM and the inhibition at 10 µM [36] was -8.93%. The inhibition at 10 µM [37] was -1.49%, the inhibition at 10 µM [38] was -3% and the “% Inh.” value [39] was -7%. It also gave an inhibition at 10 µM [40] of -7.19%, an inhibition at 10 µM [41] of 6.52% and an inhibition at 10 µM [42] of -2.93%. It also gave an inhibition at 10 µM [43] of 19.4%.
